In US9000185B2, “Cycloalkyl ether compounds and their use as BACE inhibitors” (AstraZeneca AB, priority 2012, dated 2015) one finds IC50 data, which are given here for three molecules.

Amino acid sequences for entries named in this document (tags omitted). Residues count along the entry.
UniProt P56817, 22-460: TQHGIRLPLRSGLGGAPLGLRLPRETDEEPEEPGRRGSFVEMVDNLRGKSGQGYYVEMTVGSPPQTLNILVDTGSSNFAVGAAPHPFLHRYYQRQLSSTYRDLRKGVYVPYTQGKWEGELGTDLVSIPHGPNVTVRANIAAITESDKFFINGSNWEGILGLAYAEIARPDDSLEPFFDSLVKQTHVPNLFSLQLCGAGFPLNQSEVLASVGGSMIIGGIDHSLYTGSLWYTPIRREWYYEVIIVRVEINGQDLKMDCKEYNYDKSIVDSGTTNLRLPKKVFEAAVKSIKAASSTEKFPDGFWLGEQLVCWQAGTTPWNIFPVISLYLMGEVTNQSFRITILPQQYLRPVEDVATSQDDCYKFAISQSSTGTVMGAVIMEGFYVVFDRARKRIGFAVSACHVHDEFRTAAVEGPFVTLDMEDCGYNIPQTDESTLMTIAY

For experiment [1], the target named is T1, human β-Secretase (sBACE-Fc) (Homo sapiens (Human), UniProt P56817). Briefly: TR-FRET assay. As to conditions: standard TR-FRET assay, 15 minutes reaction at RT. The experiment is classed as biochemical. As to the method:
The β-secretase enzyme used in the TR-FRET is prepared as follows:
(§1) The cDNA for the soluble part of the human β-Secretase (AA 1-AA 460) was cloned using the ASP2-Fc10-1-IRES-GFP-neoK mammalian expression vector. The gene was fused to the Fc domain of IgG1 (affinity tag) and stably cloned into HEK 293 cells.
(§2) The enzyme (truncated form) was diluted to 6 μg/mL (stock 1.3 mg/mL) and the TruPoint BACE1 Substrate to 200 nM (stock 120 μM) in reaction buffer (NaAcetate, chaps, triton x-100, EDTA pH4.5). Enzyme and compound in dimethylsulphoxide (final DMSO concentration 5%) was mixed and pre-incubated for 10 minutes at RT. Substrate was then added and the reaction was incubated for 15 minutes at RT. The reaction was stopped with the addition of 0.35 vol Stop solution (NaAcetate, pH 9). The fluorescence of the product was measured on a Victor II plate reader with excitation wavelengths of 340-485 nm and emission wavelengths of 590-615 nm. The final concentration of the enzyme was 2.7 μg/ml; the final concentration of substrate was 100 nM (Km of ˜250 nM). The dimethylsulphoxide control, instead of test compound, defined the 100% activity level and 0% activity was defined by wells lacking enzyme (replaced with reaction buffer) or by a saturating dose of a known inhibitor, 2-amino-6-[3-β-methoxyphenyl)phenyl]-3,6-dimethyl-5H-pyrimidin-4-one.
For orientation: TR-FRET usually uses a lanthanide donor and a delayed reading to cut background.

In experiment [2] the target is T1, human β-Secretase (sBACE-Fc). In words: Diluted TR-FRET assay. The format is biochemical. As to conditions: diluted TR-FRET assay: 50 times less enzyme, 6.5 h reaction time at r.t.; read-out: IC50 in TR-FRET assay (IC50 from the diluted FRET assay). Here is the method:
as §1
as §2, with “2-amino-6-[3-β-methoxyphenyl)phenyl]-3,6-dimethyl-5H-pyrimidin-4-one. […]” for “2-amino-6-[3-β-methoxyphenyl)phenyl]-3,6-dimethyl-5H-pyrimidin-4-one.”

Where only a bound is given, the exact number is not on record here.

In the case of `CO[C@H]1CC[C@]2(CC1)Cc1ccc(OCC3CCC3)cc1[C@]21N=C(C)C(N)=N1` (single isomer, unassigned; isomer 2) [7, isomer 2], in experiment [1], the IC50 (as a rule, the midpoint of a concentration-inhibition curve) was more than 4900 nM.

As for `CO[C@H]1CC[C@]2(CC1)Cc1ccc(OCC3CCC3)cc1[C@@]21N=C(C)C(N)=N1` (single isomer, unassigned; isomer 1) [7, isomer 1], the IC50 in experiment [2] turned out to be 4.5 nM.

In the case of `CO[C@H]1CC[C@]2(CC1)Cc1ccc(OCC3CCC3)cc1C21N=C(C)C(N)=N1` (stereo partly drawn) [Example 6, (1r,4r)-6′-(Cyclobutylmethoxy)-4-methoxy-5″-methyl-3′H-dispiro[cyclohexane-1,2′-indene-1′,2″-imidazol]-4″-amine], the 50% inhibitory concentration (IC50) in experiment [2] was determined as 6.1 nM.
